{"source": "PubChem BioAssay (EPA / NIEHS)", "note": "Only a part is listed here, and it is no random draw. Calls of active or inactive are those of the source. Rule for the calls: active = hit-call score of the fitted dose curve at least 0.9, where 1 is the maximum; inactive = score below 0.9."}
{"assay": "ATG_PPRE_CIS: Attagene CIS-FACTORIAL HepG2 Assay for human Peroxisome Proliferator-activated Response Element (PPRE) (AID 2282958)", "conditions": "HepG2 PPRE cis-element reporter, Attagene transcription factor profiling; actives raise or lower the signal"}
{"smiles": "C=C(C)C(N)=O", "outcome": "inactive"}
{"smiles": "CNC(=S)N(C)C", "outcome": "inactive"}
{"smiles": "C[Si](C)O[Si](C)(C)O[Si](C)(C)O[Si](C)C", "outcome": "inactive"}
{"smiles": "O=C1OC(c2ccc(O)cc2)(c2ccc(O)cc2)c2ccccc21", "AC50": "active: 24.8 µM"}
{"smiles": "Cc1cc(=O)n(-c2ccccc2)n1C", "outcome": "inactive"}
{"smiles": "Cc1cccc(C(C)(C)C)c1O", "outcome": "inactive"}
{"smiles": "CCCCCCCCCCCCCCCS(=O)(=O)Oc1ccccc1", "outcome": "inactive"}
{"smiles": "CC(=O)O[C@@H]1CC2CCC1(C)C2(C)C", "note": "(stereo not given in full)", "outcome": "inactive"}
{"smiles": "CCCCOC(=O)CCCCCCCCC(=O)OCCCC", "outcome": "inactive"}
{"smiles": "COC(=O)c1ccc(I)cc1S(=O)(=O)NC(=O)Nc1nc(C)nc(OC)n1", "outcome": "inactive"}
{"smiles": "Nc1ccc(O)c(N)c1", "outcome": "inactive"}
{"smiles": "CC(=O)O[C@@H]1C[C@@H]2CC[C@@]1(C)C2(C)C", "outcome": "inactive"}
{"smiles": "O=C(Nc1ccccc1)c1cc(Cl)ccc1O", "AC50": "active: 15.1 µM"}
{"smiles": "C=COCC1CCC(COC=C)CC1", "note": "(stereo not given)", "outcome": "inactive"}
{"smiles": "NS(=O)(=O)c1cc2c(cc1Cl)NCNS2(=O)=O", "AC50": "active: 2.9 µM"}
{"smiles": "CCCCCCCCN1CCCC1=O", "outcome": "inactive"}
{"smiles": "Cc1cc(O)c(Cl)c(C)c1Cl", "outcome": "inactive"}
{"smiles": "Cc1nc(C)nc(N2C[C@@H](C)N(c3ccnc([C@@H](C)O)n3)[C@@H](C)C2)n1", "outcome": "inactive"}
{"smiles": "CCCCC(=O)O", "outcome": "inactive"}
{"smiles": "O=C(O)Cn1c(=O)n(Cc2ccc(Br)cc2F)c(=O)c2ccc(Cl)cc21", "AC50": "active: 2.9 µM"}
{"smiles": "c1ccc(Sc2ccccc2)cc1", "outcome": "inactive"}
{"smiles": "CN1CCCC1", "outcome": "inactive"}
{"smiles": "c1ccc2occc2c1", "outcome": "inactive"}
{"smiles": "Cc1c(Cl)cccc1Cl", "outcome": "inactive"}
{"smiles": "Cc1cc(CCN2CCN(c3nsc4ccccc34)CC2)cc2c1NC(=O)CC2(C)C", "outcome": "inactive"}
{"smiles": "O=C(C=Cc1ccccc1)OCCc1ccccc1", "outcome": "inactive"}
{"smiles": "O=c1c(O)c(-c2ccc(O)c(O)c2)oc2cc(O)cc(O)c12", "AC50": "active: 27.4 µM"}
{"smiles": "CC1=NN(c2ccc(S(=O)(=O)O)cc2)C(=O)C1", "outcome": "inactive"}
{"smiles": "CCCC1CCOC(C)S1", "note": "(stereo not given)", "outcome": "inactive"}
{"smiles": "C=CC(C)(CCC=C(C)C)OC(=O)CC", "note": "(stereo not given)", "outcome": "inactive"}
{"smiles": "CCOC(=O)c1ccc(N)cc1", "outcome": "inactive"}
{"smiles": "CC1(C)O[C@@H]2[C@@H](CO[C@@]3(COS(N)(=O)=O)OC(C)(C)O[C@@H]23)O1", "outcome": "inactive"}
{"smiles": "NC(N)=S", "outcome": "inactive"}
{"smiles": "CC1OC1C1CCC2(C)OC2C1", "note": "(stereo not given)", "outcome": "inactive"}
{"smiles": "CC(=O)Oc1ccccc1C(=O)O", "AC50": "active: 36.2 µM"}
{"smiles": "CCCCCCc1ccc(O)cc1O", "AC50": "active: 31.1 µM"}
{"smiles": "CCCCOCC(C)O", "note": "(stereo not given)", "outcome": "inactive"}
{"smiles": "CCCC(=O)OC", "outcome": "inactive"}
{"smiles": "COc1ccc(C(C)=O)cc1", "outcome": "inactive"}
{"smiles": "CC(C)(O)c1coc(S(=O)(=O)NC(=O)Nc2c3c(cc4c2CCC4)CCC3)c1", "outcome": "inactive"}
